The assay is filed under the species Homo sapiens. In words: Selectivity ratio of IC50 for AKR1C2 (unknown origin) to IC50 for AKR1C3 (unknown origin).

`Cc1ccc(CNC(=O)c2cc(/C=C/C(=O)O)cc(-c3ccc(Br)cc3)c2)cc1`: the Ratio IC50 was 277. Next, `Cc1ccc(CNC(=O)c2cc(/C=C/C(=O)O)cc(-c3ccc4c(c3)OCO4)c2)cc1`: 327.

For the origin of these results see ChEMBL document CHEMBL5346958 (J Med Chem, 2023).
